Experimental findings from patent publication US20230287109A1 are described below.

Amino acid sequences for entries named in this document (tags omitted). A change or cut given only in a name is not applied to a line headed by its entry.
UniProt G1T1L9: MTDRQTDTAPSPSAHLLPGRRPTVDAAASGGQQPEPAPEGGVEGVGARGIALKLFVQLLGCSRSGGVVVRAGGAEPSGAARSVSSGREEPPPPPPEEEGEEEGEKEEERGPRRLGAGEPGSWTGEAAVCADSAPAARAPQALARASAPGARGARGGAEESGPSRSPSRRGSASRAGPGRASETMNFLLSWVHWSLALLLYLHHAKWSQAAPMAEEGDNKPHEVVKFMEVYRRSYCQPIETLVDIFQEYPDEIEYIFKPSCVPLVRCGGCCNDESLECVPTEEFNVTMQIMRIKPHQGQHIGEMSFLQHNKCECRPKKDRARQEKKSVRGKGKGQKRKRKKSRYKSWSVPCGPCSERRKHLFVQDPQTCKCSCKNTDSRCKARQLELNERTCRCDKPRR

For the test, the target named is rabbit VEGF (rabbit) (UniProt G1T1L9). Description: SPR, summary table, column Rabbit VEGF, Kd [M]. Background: In SPR one partner is held on a chip, and binding of the other changes the refractive index at the surface.

One may read the Kd as the equilibrium constant for the complex coming apart. Higher therefore signals a looser complex. faricimab (bispecific antibody): the Kd was 5.1 nM.
